Test results: US12460050B2, “Nitric oxide-releasing hyperbranched compounds as antibacterial scaffolds and methods pertaining thereto” (The University of North Carolina at Chapel Hill, priority 2017, dated 2025)

Tested on: L929 mouse fibroblasts

Q: Which “toxicity to L929 mouse fibroblast cells in vitro (in words)” value does the source give for “Hyperbranched poly(methylene bisacrylamide-hydroxyethyl ethylenediamine) [HBPMH]” here?
A: The value was “non-toxic”.
